Assay results published in patent US10138207B2, “Benzomorphan analogs and the use thereof” (priority 2012, dated 2018).

Sequences of proteins named here, by UniProt entry; tags and fusion partners are left off. A change or cut given only in a name is not applied to a line headed by its entry.
UniProt P41145: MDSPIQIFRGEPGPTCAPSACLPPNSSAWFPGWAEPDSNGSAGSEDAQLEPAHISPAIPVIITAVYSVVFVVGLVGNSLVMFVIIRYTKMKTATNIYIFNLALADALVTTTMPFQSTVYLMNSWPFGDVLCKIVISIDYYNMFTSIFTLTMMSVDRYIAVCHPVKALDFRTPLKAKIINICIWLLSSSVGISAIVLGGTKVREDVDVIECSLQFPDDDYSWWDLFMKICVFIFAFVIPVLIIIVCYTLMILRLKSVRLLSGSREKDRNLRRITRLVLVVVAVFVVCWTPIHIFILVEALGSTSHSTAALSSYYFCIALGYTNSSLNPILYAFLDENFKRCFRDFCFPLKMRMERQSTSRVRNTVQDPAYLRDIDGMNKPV
UniProt P35372, whole entry, looked up: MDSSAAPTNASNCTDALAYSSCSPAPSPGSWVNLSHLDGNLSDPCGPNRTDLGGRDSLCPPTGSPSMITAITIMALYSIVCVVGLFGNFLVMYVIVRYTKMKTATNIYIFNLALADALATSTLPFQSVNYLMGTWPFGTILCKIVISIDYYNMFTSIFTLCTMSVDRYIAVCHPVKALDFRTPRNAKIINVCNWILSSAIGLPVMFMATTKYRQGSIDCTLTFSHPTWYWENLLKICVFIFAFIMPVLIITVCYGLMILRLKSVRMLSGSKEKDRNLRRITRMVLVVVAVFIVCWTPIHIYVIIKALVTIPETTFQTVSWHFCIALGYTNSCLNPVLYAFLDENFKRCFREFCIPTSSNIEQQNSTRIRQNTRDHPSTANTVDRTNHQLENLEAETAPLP

Key:
[1] = target: κ opioid receptor (Homo sapiens, UniProt P41145); test: κ-opioid receptor radioligand dose-displacement binding assay ([3H]-U69,593); conditions: read-out: Ki Opioid Receptor κ; HEK-293 or CHO cells
[2] = target: μ-opioid receptor (Homo sapiens, UniProt P35372); test: μ-opioid receptor [35S]GTPγS functional assay, U-2 OS cells; type: biochemical; conditions: relative to DAMGO

`COc1ccc2c(c1)[C@@]1(C)CCN(C)C(C2)C1N1CCC(N)CC1` (stereo partly drawn) [Compound 70, 1-((6R)-8-methoxy-3,6-dimethyl-1,2,3,4,5,6-hexahydro-2,6-methanobenzo[d]azocin-11-yl)piperidin-4-amine] showed a Ki [1] of 4.72 µM.

`CN1CC[C@@]2(C)c3cc(O)ccc3C[C@@H]1[C@@H]2NCCc1ccc(F)cc1` [Compound 101, (2R,6S,11R)-11-((4-fluorophenethyl)amino)-3,6-dimethyl-1,2,3,4,5,6-hexahydro-2,6-methanobenzo[d]azocin-8-ol] was tested, and the “GTPγS μ Emax” value [2] was 104.00 ± 2.08%.
